In PubChem BioAssay AID1010 (Sanford-Burnham Center for Chemical Genomics, 2008) one finds relative survival (cellular ATP) data, which are given here for one compound.

Only a part is listed here, and it is no random draw. Some of these compounds have results that are not shown, active ones among them. Active and inactive are the calls of the source.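 The calls were made as follows: active = survival measured by cellular ATP above 50% at 15 µg/ml in the first screen; inactive = the rest.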

A short description of the experiment: protection against thapsigargin ER stress killing – CSM14.1 cells, ATP luminescence, primary screen (AID 1010).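 Also: cell death triggered by about 15 µM thapsigargin; ATP read 24 h after thapsigargin was added; plate controls were thapsigargin with DMSO for no effect and DMSO without thapsigargin for full effect.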 Conditions: CSM14.1 thapsigargin ER stress survival, hits give high values, screened at 15 µg/mL (by protocol).
Take `COc1ccc(OC)c(C=C(C#N)C#N)c1`: the relative survival (cellular ATP) was inactive: 4.8%.
